# Only a part is listed here, and it is no random draw. Some tests of the compounds listed are not included; inactive here does not mean inactive elsewhere. Inconclusive results are not listed. Activity calls are given as the source filed them. Rule as the data show it: active = max response below about -50%; inconclusive = no clear call, values can overlap the other calls; inactive = above that.
# Amino acid sequences for entries named in this document (tags omitted).
# UniProt P35462, whole entry: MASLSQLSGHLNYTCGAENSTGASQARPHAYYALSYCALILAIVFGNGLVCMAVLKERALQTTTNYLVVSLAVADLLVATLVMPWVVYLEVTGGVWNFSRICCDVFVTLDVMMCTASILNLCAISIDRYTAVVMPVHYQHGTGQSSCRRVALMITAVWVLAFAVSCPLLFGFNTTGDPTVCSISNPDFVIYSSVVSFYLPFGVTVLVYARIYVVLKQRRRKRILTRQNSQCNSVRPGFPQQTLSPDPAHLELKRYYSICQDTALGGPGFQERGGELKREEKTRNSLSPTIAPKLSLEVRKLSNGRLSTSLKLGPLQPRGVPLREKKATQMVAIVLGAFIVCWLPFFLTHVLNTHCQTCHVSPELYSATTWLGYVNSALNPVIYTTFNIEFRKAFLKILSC
# Target: D(3) dopamine receptor (Homo sapiens) (UniProt P35462)
# Experiment: qHTS of D3 Dopamine Receptor Antagonist: qHTS
# Settings: D3R cells, DiscoveRx beta-arrestin luminescence, antagonist mode; stronger effect = lower value
# Excerpt: D3 DARs represent a very important target for the treatment of several neuropsychiatric disorders. Indeed, one of the most promising therapeutic applications for the D3 DAR is in the area of addiction and related disorders. […] These findings have been observed with a number of addictive substances including cocaine, amphetamine, nicotine, and alcohol. […] Antagonism of the D3 DAR may also be therapeutic in the treatment of schizophrenia or psychosis. […] Since the D3 DAR is expressed in areas of the CNS associated with the control of mood and emotion, it has been hypothesized that selective antagonism of the D3 DAR may be effective in treating psychosis without inducing the motor side effects typically seen with D2 DAR antagonists.
# This part of the project aims to discover novel antagonist.
# NIH Chemical Genomics Center [NCGC]
# NIH Molecular Libraries Probe Centers Network [MLPCN]
# Assay Submitter (PI): David Sibley, NINDS
# Freshly passaged cells are plated in 1536 well white, solid bottom plates at a density of 1500 cells/well in 3microl of complete media. After an overnight incubation at 37 degrees C in 5% CO2, cells are loaded with 23nl of test compound from the compound library (as well as dopamine controls) using a 1536 pintool and incubated at 37 degrees C for 90 minutes. Two microliters of DiscoveRx reagent is then added to all cells, and they are incubated for an additional 30 - 60 minutes at room temperature. Following incubation, luminescence is measured on a ViewLux CCD-based luminometer reader using a 20 sec exposure time.
# % is scaled to controls: 0 for no effect and ±100 for the full control effect.
row,SMILES,"max response, negative = inhibition"
1,COc1cccc(C(=O)NCC2(N3CCCCC3)CCCCC2)c1,inactive: -10%
2,COc1cc(C(=O)NCC2(N(C)C)CCCCC2)c([N+](=O)[O-])cc1OC,inactive: -4.38%
3,COc1ccc(Br)c(C(=O)NCC2(N3CCCCC3)CCCCC2)c1,inactive: -18.2%
4,CC(C)Oc1ccc(C(=O)NCC2(N(C)C)CCCCC2)cc1,inactive: 1.62%
5,O=C(OCCN1CCCC1)C(O)(c1ccccc1)c1ccccc1,inactive: -0.25%
6,CN(C)c1cccc(C(=O)NCC2(N(C)C)CCCCC2)c1,inactive: -9.84%
7,O=C(OC1CN2CCC1CC2)C(CO)(c1ccccc1)c1ccccc1 (configuration not stated),inactive: -18.4%
8,CCN(CC)CC(C)C(C)OC(=O)C(O)(c1ccccc1)c1ccccc1 (configuration not stated),inactive: -12.3%
9,COc1cc(SC)ccc1C(=O)NCC1(N(C)C)CCCCC1,inactive: -12.1%
10,CC(C)N1C(=O)CC2(CCN(CCOC(=O)C(O)(c3ccccc3)c3ccccc3)CC2)C1=O,inactive: -9.82%
11,Cc1ccc(C(=O)NCC2(N3CCCCC3)CCCCC2)cc1,inactive: -15.1%
12,O=C(NCC1(N2CCCCC2)CCCCC1)c1cc([N+](=O)[O-])ccc1Cl,inactive: 1.23%
13,CN1[C@@H]2CC[C@H]1CC(OC(=O)C(O)(c1ccccc1)c1ccccc1)C2 (some centres not stated),inactive: -21.4%
14,C=CCN1CCN(CCOC(=O)C(O)(c2ccccc2)c2ccccc2)CC1,inactive: -6.47%
15,O=C(NCC1(N2CCCCC2)CCCCC1)c1cc(F)c(F)cc1Cl,inactive: 5.4%
16,COc1ccc(C(=O)NCC2(N(C)C)CCCCC2)cc1,inactive: 20.5%
17,Cc1cc(C(=O)NCC2(N3CCCCC3)CCCCC2)ccc1[N+](=O)[O-],inactive: 1.59%
18,CCN1CCCC(OC(=O)C2(O)c3ccccc3C=Cc3ccccc32)C1 (configuration not stated),inactive: -9.72%
19,O=C(NCC1(N2CCCCC2)CCCCC1)c1cccc(Br)c1,inactive: -13.5%
20,Cc1ccccc1C(=O)NCC1(N2CCCCC2)CCCCC1,inactive: 7.51%
21,CN(C)C1CCCC1OC(=O)C(O)(c1ccccc1)c1ccccc1 (configuration not stated),inactive: 9.24%
22,CN(C)c1ccc(C(=O)NCC2(N(C)C)CCCCC2)cc1,inactive: 0.921%

# Reference: PubChem BioAssay AID652054 (National Center for Advancing Translational Sciences (NCATS), 2013)
